In patent publication EP4691487A1, “METHOD FOR INCREASING CONCENTRATION OF MACROMOLECULAR DRUG IN TUMOR TISSUE” (priority 2023, dated 2024):

Legend:
[1] = tested on: LU-01-1626 human lung cancer patient-derived xenograft (PDX) model; test: Anti-tumor efficacy in LU-01-1626 human lung cancer PDX model (Example 11); type: in vivo, female NOD-SCID mice
Procedure: Human lung cancer tumor tissue, passaged to FP5, was used in this efficacy experiment.
Each mouse was inoculated subcutaneously with a LU-01-1626 FP5 tumor piece (approximately 30 mm^3) on the right flank for tumor growth. Treatment began on Day 18 after tumor implantation, when the average tumor size reached approximately 109 mm^3. The animals were divided into groups using Excel-based randomization software and stratified randomization was performed according to their tumor volume. Each group consisted of 4 tumor-bearing mice. The test samples were administered to the mice according to the protocol shown in Table 40 of the experimental design.
The primary endpoint was whether tumor growth could be delayed or if the mice could be cured. Tumor volume and tumor-bearing mouse weight were measured twice a week using a vernier caliper. The tumor volume was calculated as V = 0.5 a × b^2, where a and b represent the long and wide diameters of the tumor, respectively.
(§1) Tumor growth inhibition rate TGI (%) = [1-(Tti-Tt0)/ (Vci-Vc0)] ×100, Tti is the average tumor volume of the compound group after the start of dosing, Tt0 is the average tumor volume of the compound group at the first dose, Vc0 is the average tumor volume of the vehicle control group at the first dose, and Vci is the average tumor volume of the vehicle control group after the start of dose.
Relative tumor proliferation rate T/C (%): The calculation formula is as follows: T/C % = TRTV / CRTV × 100 % [formula] (TRTV: RTV of the treatment group; CRTV: RTV of the negative control group).
(§2) The relative tumor volume (RTV) was calculated based on the results of tumor measurement using the formula RTV = TVi /TV0, where TV0 is the average tumor volume measured at the time of grouping and dosing (i.e., do), and TVi is the average tumor volume at a particular measurement. TRTV and CRTV data were taken on the same day.
One-way analysis of variance was performed to compare tumor volumes between groups. […] All data were analyzed using SPSS 29.0, and p < 0.05 was considered statistically significant.

[2] = tested on: human rectal cancer xenograft model LD1-0038-361855; test: Anti-tumor efficacy in human rectal cancer xenograft model LD1-0038-361855 (Example 9); type: in vivo, NU/NU mice
Procedure: Human rectal cancer tumor tissue (case model number: LD1-0038-361855) was passaged to FP5+2 and used in this efficacy study.
The tumor masses of human rectal cancer LD1-0038-361855 in vivo transplanted tumors were cut into pieces of approximately 3 mm × 3 mm × 3 mm (approximately 45 to 60 mg) and inoculated subcutaneously into NU/NU mice. The mice were observed after inoculation and the growth of the tumor was monitored. On the 23rd day after inoculation, when the average tumor volume of the tumor-bearing mice reached 156.69 mm^3, grouping and dosing were performed. The day of grouping and dosing was defined as day 0. Dosing and Grouping
Measurement of tumor volume and body weight of tumor-bearing mice: Tumor volume was measured twice a week using a vernier caliper, and the formula for calculating tumor volume was V = 0.5 a × b^2, where a and b represent the long and wide diameters of the tumor, respectively; Relative tumor proliferation rate T/C (%): The calculation formula is as follows: T/C % = TRTV / CRTV × 100 % (TRTV: RTV of the treatment group; CRTV: RTV of the negative control group). The relative tumor volume (RTV) was calculated based on the results of tumor measurement using the formula RTV = TVi /TV0, where TV0 is the average tumor volume measured at the time of grouping and dosing (i.e., d0), and TVi is the average tumor volume at a particular measurement. TRTV and CRTV data were taken on the same day.
as §1
At the end of the experiment, the tumor masses were weighed and photographed.
(§3) All data are expressed as mean ± SEM, where SEM = SD/SQRT (n), and n = number of animals in each experimental group. One-way ANOVA was used to compare tumor volumes between the treatment and control groups. All data were analyzed using GraphPad, and p < 0.05 was considered significant.

[3] = Body weight, survival and tolerability in NCI-N87 & NIH-3T3 xenograft mice (Example 7); type: in vivo, BALB/c-nude mice
Procedure: The development of this experimental protocol and any modifications were evaluated and approved by the Institutional Animal Care and Use Committee (IACUC) before implementation. The use and welfare of experimental animals were conducted in accordance with the guidelines of the Association for Assessment and Accreditation of Laboratory Animal Care (AAALAC). Animal health and mortality were monitored daily. Routine examinations included observation of tumor growth and the effects of drug treatment on daily animal behavior, such as activity, food and water intake (visual observation only), body weight change, physical signs, or other abnormalities. Group deaths and adverse reactions were recorded based on the number of animals in each group.
The experiment was carried out according to the dosing regimen. During the experiment, the animals' activities such as feeding and drinking were observed every day, and the animal body weights were recorded three times a week. For the co-inoculated NCI-N87 human gastric cancer cells and NIH-3T3 mouse embryonic fibroblasts, on day 35 after grouping and dosing, the average body weight of the control group increased from 18.5 g on Day 0 to 22.0 g, with a body weight gain of 18.4%. […] The average body weight of the Enhertu + IN10018 (3 + 25 mg/kg) combination therapy group increased from 18.9 g on Day 0 to 20.7 g on Day 35, with a body weight change rate of 9.5%. […] Table 29: Evaluation of Body Weight Changes of the Test Substances in the BALB/c-nude Mouse Xenograft Model of NCI-N87 & NIH-3T3 Cells (Based on Data on Day 35 After Grouping and Dosing)

[4] = tested on: human gastric cancer NCI-N87 cells and mouse embryonic fibroblasts NIH-3T3 cells; test: Anti-tumor efficacy in subcutaneous xenograft co-inoculated with NCI-N87 and NIH-3T3 cells (Example 7); type: in vivo, BALB/c-nude mice
Procedure: Human gastric cancer cell line NCI-N87 (source: Nanjing Cobioer Biotechnology Co., Ltd., Art. No: CBP60491) was maintained and passaged by INXMED (NANJING) CO., LTD. Cells were cultured as monolayers in RPMI-1640 medium supplemented with 10% fetal bovine serum at 37°C in a 5% CO2 incubator. Cells were routinely digested and passaged two to three times weekly using trypsin-EDTA.
Mouse embryonic fibroblast NIH-3T3 cells (Nanjing Cobioer Biotechnology Co., Ltd., Art. No: CBP60317) were maintained and passaged by INXMED (NANJING) CO., LTD. Cells were cultured as monolayers in RPMI-1640 medium supplemented with 10% fetal calf serum at 37°C in a 5% CO2 incubator. Cells were routinely digested and passaged two to three times a week using trypsin-EDTA. When both cell lines reached the exponential growth phase and a confluence of 80%-90%, cells were harvested, counted, and inoculated.
For mice inoculated with a mixture of NCI-N87 and NIH-3T3 cells, 0.2 mL of a mixed cell suspension containing 10×10^6 NCI-N87 cells and 5×10^5 NIH-3T3 cells was subcutaneously inoculated into the right back of each mouse. On day 8 after inoculation, when tumor volumes reached approximately 154 mm^3, mice inoculated with a mixture of NCI-N87 and NIH-3T3 cells were randomly divided into groups based on tumor volume and dosed.
The experimental indicator is to examine whether tumor growth is inhibited, delayed, or cured. Tumor diameter is measured three times a week using a vernier caliper. Tumor volume is calculated using the formula: V = 0.5 × a × b^2, where a and b represent the major and minor diameters of the tumor, respectively.
The tumor inhibition efficacy of a compound was evaluated using the TGI (%), which reflects the rate of tumor growth inhibition. […]

[5] = tested on: human ovarian cancer xenograft model LD2-0032-200651; test: Anti-tumor efficacy in human ovarian cancer xenograft model LD2-0032-200651 (Example 10); type: in vivo, NU/NU mice
Procedure: Human ovarian cancer (poorly differentiated adenocarcinoma) tumor tissue (model number LD2-0032-200651) was passaged to FP3+5 and used in this efficacy experiment.
The tumor masses of human ovarian cancer LD2-0032-200651 in vivo transplanted tumors were cut into pieces of approximately 3 mm × 3 mm × 3 mm (approximately 45 to 60 mg) and inoculated subcutaneously into NU/NU mice.
The mice were observed after inoculation and the growth of the tumor was monitored. On the Day 18 after inoculation, when the average tumor volume of the tumor-bearing mice reached 180.47 mm^3, the grouping and dosing were performed. The day of grouping and dosing was defined as Day 0. Dosing and Grouping
The first dose of Enhertu began on the third day after grouping.
Tumor volume and tumor-bearing mouse weight were measured twice a week using a vernier caliper. The tumor volume was calculated as V = 0.5 a × b^2, where a and b represent the long and wide diameters of the tumor, respectively; Relative tumor proliferation rate T/C (%): The calculation formula is as follows: T/C % = TRTV / CRTV × 100 % [formula] (TRTV: RTV of the treatment group; CRTV: RTV of the negative control group).
as §2, §1
The body weight of all tumor-bearing mice was measured twice weekly. The relative weight change after dosing was calculated: RCBW(%) = (BWi - BW0)/BW0×100, where BWi is the weight after the start of dosing and BW0 is the weight at the time of the first dose. Tumor masses were weighed and photographed at the end of the experiment.
as §3

Enhertu
TGI (%) ([1]; Day 31, [1-(T31-T0)/(V31-V0)]×100): 70.28%
T/C (%) ([1]; Day 31, group mean tumor volume of treatment group divided by that of control group): 33.58%
Tumor volume (mm^3) Day 31 ([1]; Enhertu 10/3/6 mg/kg IV QW, IN10018 25/12.5 mg/kg PO QD, Mean ± SEM): 664 ± 157 mm^3
tumor volume growth inhibition rate TGI (%) ([2]; Day 24, Enhertu 3 single dose (D9) IV, IN10018 12.5 QD*25 PO): 83.27%
average tumor volume ([2]; Day 24, Enhertu 3 single dose (D9) IV, IN10018 12.5 QD*25 PO, mean ± SEM): 361.30 ± 113.01 mm^3
relative tumor proliferation rate T/C (%) ([2]; Day 24, TRTV/CRTV, Enhertu 3 single dose (D9) IV, IN10018 12.5 QD*25 PO): 26.11%
average tumor weights ([2]; end of the experiment (Day 24)): 0.278 ± 0.083 g
tolerability ([3]; 35-day dosing cycle, Enhertu (3 mg/kg), IN10018 (25 mg/kg)): tolerated
Body weight change rate (%) ([3]; (W35-W0)/W0, day 35): 16.9%
Weight on day 0 ([3]; day 0 (baseline), mean ± SEM): 17.9 ± 0.3 g
Weight on day 35 ([3]; day 35, Enhertu 3 mg/kg, IN10018 25 mg/kg, mean ± SEM): 20.9 ± 0.6 g
Animal survival ([3]; number of animal survival on day 0/on day 35): 6/6
Tumor volume on day 0 (mm^3) ([4]; day 0 of grouping and dosing (baseline), mean ± SEM): 154.5±10.6 mm^3
TGI (%) ([4]; day 35, Enhertu 3 mg/kg i.p. Day 7, Day 28, IN10018 25 mg/kg PO QD x 5W): -3.8%
Tumor volume on day 35 (mm^3) ([4]; day 35, Enhertu 3 mg/kg i.p. Day 7, Day 28, IN10018 25 mg/kg PO QD x 5W, mean ± SEM): 1575.2±547.4 mm^3
Tumor volume /Day 0 ([5]; Day 0 (baseline), mean ± SEM): 181.25± 16.18 mm^3
TGI(%) /Day 21 ([5]; Day 21): 43.20%
Tumor volume /Day 21 ([5]; Day 21, Enhertu 3 mg/kg QW*3 IV, IN10018 25 mg/kg QD*21 PO, mean ± SEM): 1294.64 ±285.36 mm^3
Relative tumor volume / Day 21 ([5]; Day 21, RTV = TVi/TV0): 5.54
T/C(%)/ Day 21 ([5]; Day 21, TRTV/CRTV): 61.08%
